The source of these data is US9487559B2, “Compositions comprising multivalent synthetic ligands of surface nucleolin and glycosaminoglycans” (ELRO PHARMA SARL, priority 2010, dated 2016).

In general, IC50 refers to the midpoint of a concentration-inhibition curve. Low readings indicate greater potency in that assay, high ones weaker potency in that assay.

In assay [1] the test system is PANC-1 (Human pancreatic carcinoma) cells. It is filed as cell-based.
The test system of assay [2] is HUVEC cells.
The subject of assay [3] is U87-MG (Human glioblastoma-astrocytoma) cells. It is filed as cell-based.
Assay [4] relates to chicken embryo chorioallantoic membrane. Kind of assay: In vivo angiogenesis, chicken embryo chorioallantoic membrane (CAM) assay. As to conditions: 20 μM N6L alone or pre-incubated with heparin or CS-C, 1 cm2 CAM area, 48 h, vs water control. As to the method: FIG. 21. […] An 1 cm2 area of chicken embryo CAM, restricted by a silicon ring, was incubated with 20 μM N6L or nanoparticles composed by 20 μM N6L and […] heparin or Cs-C. 48 h later, total vessels length was quantified. We observed that N6L had no effect on the in vivo angiogenesis, in contrast to the heparin or Cs-C composed nanoparticles that inhibited the development of new blood vessels (50% and 70%, respectively). Results are mean values±SD from at least 3 independent experiments.
To analyse the effects of N6L pre-incubated with sulfated glycoaminoglycans on in vivo angiogenesis using chicken embryo chorioallantoic membrane assay.
Leghorn fertilized eggs were incubated for 4 days at 37° C. A window was then opened on the eggshell, exposing the CAM. The window was covered with sterile tape, and the eggs were returned to the incubator. On day 9 of embryo development, […] of distilled water as a control or containing either 20 μM N6L, […] or 10 μg/ml CS-C alone or 20 μM N6L pre-incubated with either 10 μg/ml heparin or 10 μg/ml CS-C inside a silicone ring to restricted the area which is 1 cm^2. […] Photographs were taken and the total length of the vessels was quantified using PC image-analysis software (Scion Corporation, USA). […]

Where [5] appears, read: 20 μM N6L alone or with 10 μg/ml heparin or CS-C, treated the first day only, MTT at end of fourth day.

Regarding `CC(=O)N[C@@H](CCCCNC(=O)[C@H](CCCNC(=N)N)NC(=O)[C@@H]1CCCN1C[C@@H](N)CCCCN)C(=O)NC(C)(C)C(=O)NCC(=O)N[C@@H](CCCCNC(=O)[C@H](CCCNC(=N)N)NC(=O)[C@@H]1CCCN1C[C@@H](N)CCCCN)C(=O)NC(C)(C)C(=O)NCC(=O)N[C@@H](CCCCNC(=O)[C@H](CCCNC(=N)N)NC(=O)[C@@H]1CCCN1C[C@@H](N)CCCCN)C(=O)NC(C)(C)C(=O)NCC(=O)N[C@@H](CCCCNC(=O)[C@H](CCCNC(=N)N)NC(=O)[C@@H]1CCCN1C[C@@H](N)CCCCN)C(=O)NC(C)(C)C(=O)NCC(=O)N[C@@H](CCCCNC(=O)[C@H](CCCNC(=N)N)NC(=O)[C@@H]1CCCN1C[C@@H](N)CCCCN)C(=O)NC(C)(C)C(=O)NCC(=O)N[C@@H](CCCCNC(=O)[C@H](CCCNC(=N)N)NC(=O)[C@@H]1CCCN1C[C@@H](N)CCCCN)C(=O)NC(C)(C)C(=O)NCC(N)=O` [Nucant N6L], the values for the IC50 in assay [1] and in assay [2] were 15 µM and 10 µM, respectively. Also, the “inhibition of PANC1 proliferation after four days of treatment (4 treatments)” value in assay [1] (20 μM) worked out at 50%. Besides, the “inhibition of PANC1 proliferation after one day of treatment” value in assay [1] (setting [5]) is recorded as “did not exert any inhibitory effect”. Further, the “N6L concentration giving maximal effect on HUVEC proliferation” value in assay [2] (N6L alone or pre-incubated with 10 μg/ml GAG, treated every day for 4 days) was 50 µM. Besides, the “inhibition of U87-MG proliferation after four days of treatment (4 treatments)” value in assay [3] (20 μM) is 50%. Besides, the “inhibition of U87-MG proliferation after one day of treatment” value in assay [3] (setting [5]) is recorded as “slight inhibitory effect”. Also, the “inhibition of the development of new blood vessels (total vessels length)” value in assay [4] was “no significant effect”.
